This note sets out measurements from ChEMBL document CHEMBL1135203, “Benzodiazepine inhibitors of the MMPs and TACE” (Bioorg Med Chem Lett, 2002).

Amino acid sequences for entries named in this document (tags omitted). A change or cut given only in a name is not applied to a line headed by its entry.
UniProt P14780: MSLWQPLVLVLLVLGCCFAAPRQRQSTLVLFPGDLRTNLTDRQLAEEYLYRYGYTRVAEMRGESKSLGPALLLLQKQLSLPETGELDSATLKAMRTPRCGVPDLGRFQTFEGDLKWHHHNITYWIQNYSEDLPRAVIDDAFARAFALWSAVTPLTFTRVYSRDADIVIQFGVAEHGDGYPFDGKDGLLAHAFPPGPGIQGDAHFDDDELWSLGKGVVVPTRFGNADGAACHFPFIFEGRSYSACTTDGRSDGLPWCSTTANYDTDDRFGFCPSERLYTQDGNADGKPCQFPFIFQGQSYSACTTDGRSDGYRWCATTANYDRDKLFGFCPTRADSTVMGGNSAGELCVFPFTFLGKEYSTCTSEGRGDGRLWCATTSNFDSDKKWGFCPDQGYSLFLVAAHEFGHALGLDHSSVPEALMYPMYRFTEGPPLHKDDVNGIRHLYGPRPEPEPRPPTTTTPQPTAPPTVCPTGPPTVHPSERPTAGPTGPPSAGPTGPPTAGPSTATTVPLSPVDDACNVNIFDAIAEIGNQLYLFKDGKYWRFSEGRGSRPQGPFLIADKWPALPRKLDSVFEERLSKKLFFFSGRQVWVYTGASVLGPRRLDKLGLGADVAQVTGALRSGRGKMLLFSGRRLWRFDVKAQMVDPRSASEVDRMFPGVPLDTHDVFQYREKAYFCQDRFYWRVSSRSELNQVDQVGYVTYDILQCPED

The experiment has as its target Matrix metalloproteinase-9 (Homo sapiens, UniProt P14780). Put plainly: Concentration required in vitro to inhibit Matrix metalloprotease-9.

As usually defined, the IC50 is the point on the concentration scale where inhibition reaches its midpoint. High values mean weaker potency in that assay, low ones greater potency in that assay. `COc1ccc(S(=O)(=O)N2Cc3ccccc3N(C(=O)c3cccs3)CC2C(=O)NO)cc1` (stereo unspecified) came in with an IC50 of 1 nM.
